What is called Kd is a measure of binding affinity in units of concentration. Lower therefore signals a tighter complex.

For this assay, the target named is lactate dehydrogenase (LDH). The assay can be described thus: MST; HD labelled with RED-NHS at 2 uM; label-free LDH titrated, diluted from 71 uM; binding buffer 20 mM HEPES, 150 mM KCl, pH 7.4 (the legend says phosphate buffer); normal conditions; Monolith NT.115, 20% LED, 60% MST power. The settings on record: both partners purified.

B1: DrHD, hydrophilic domain of DrG3LEA (Deinococcus radiodurans group 3 LEA protein) (domain or fragment, Deinococcus radiodurans R1, UniProt Q9RV58 104-245, looked up)
chain: VADTAKDAGQNVGQNVKREAADLADQAKDKAQDVKADVSKAADQAKDKAQDVAQNVQAGAQQAAANVKDKVQDVKADASKAADQAKDKAQDVAQNVKQGAQQAASDAKDKVQDVKADASRAADQAKDKAQDVAQNVKQSAQD
modifications: labelled with the Monolith NT Protein Labeling Kit RED-NHS
notes: Cloned between BamHI and XhoI of pET28a; also called HD of DrG3LEA
Regarding B1, the affinity, expressed as Kd, was 180 ± 10 nM.
